This note sets out measurements from PubChem BioAssay AID1688 (National Center for Advancing Translational Sciences (NCATS), 2009).

The entries are a selection whose mix differs from that of the whole data set. Records with an inconclusive call do not appear. The source made the active and inactive calls. The call rests on the fitted dose curve; in most records, active means well fitted inhibition curve with a large enough effect; inconclusive means small, poorly fitted or top-dose-only effect, or effect the other way; inactive means no such curve, though single readings can be large or run the other way.
On the % scale 0 is the no-effect control and ±100 the full control effect.

The test is described as follows: qHTS Multiplex Assay to Identify Dual Action Probes in a Cell Model of Huntington: Aggregate Formation (GFP). Further: nearly all actives have a fitted effect of over 60% in size. Conditions: PC12 HttQ103-GFP aggregates, Acumen cytometry, 40 h; at 46.1 µM (top of the series) unless noted. For orientation: In qHTS, concentration-response curves come from the screen itself.
Consider `CP(=O)(Nc1ccc(Cl)cc1)Oc1ccc(F)cc1` (configuration not stated), for which the activity change, negative = inhibition is inactive: -3.82%.

Consider `COc1ccccc1OP(C)(=O)Nc1ccccc1Br` (configuration not stated), for which the activity change, negative = inhibition is inactive: 8.67%.

As for `CC(C)(C)c1ccc(OP(C)(=O)O)cc1`, the activity change, negative = inhibition is inactive: -2.19%. As for `CP(=O)(Oc1ccccc1)N1CCOC1=O` (configuration not stated), the activity change, negative = inhibition was inactive: -4.32%.

In the case of `CCc1ccc(OP(C)(=O)Nc2cccnc2)cc1` (configuration not stated), the activity change, negative = inhibition is inactive: 0.334%. As for `COc1ccccc1OP(C)(=O)Nc1c(C)n(C)n(-c2ccccc2)c1=O` (configuration not stated), the activity change, negative = inhibition is inactive: 14.1%. As for `OCCSCCO`, the activity change, negative = inhibition is inactive: -9.98%. For the molecule `N#[O+].[C-]#N.[C-]#N.[C-]#N.[C-]#N.[C-]#N.[Fe+2].[Na+].[Na+]`, the activity change, negative = inhibition was inactive: 14%. Turning to `CCN(CC)CC(O)COC(=O)C(O)(c1ccccc1)C1CCCCC1` (configuration not stated), the activity change, negative = inhibition is inactive: 0.177%. Take `COc1ccc(OP(C)(=O)Nc2ccc(Br)cc2)cc1` (configuration not stated): the activity change, negative = inhibition is inactive: 2.35%. With `C/C1=C2N=C(/C=C3N=C(/C(C)=C4\[N-][C@@](C)([C@H]5N=C1[C@@](C)(CCC(=O)NC[C@H](C)OP(=O)([O-])O[C@@H]1[C@H](O)[C@H](n6cnc7cc(C)c(C)cc76)O[C@@H]1CO)[C@@H]5CC(N)=O)[C@](C)(CC(N)=O)[C@H]4CCC(N)=O)[C@@](C)(CC(N)=O)[C@@H]\3CCC(N)=O)C(C)(C)[C@@H]/2CCC(N)=O.[C-]#N.[Co+3]`, the activity change, negative = inhibition is inactive: 11.3% [at 20.6 µM]. Take `CC(C)OP(=O)(F)OC(C)C`: the activity change, negative = inhibition is inactive: 27.4%. Turning to `CP(=O)(OC12CC3CC(CC(C3)C1)C2)OC12CC3CC(CC(C3)C1)C2`, the activity change, negative = inhibition was inactive: 9.97%. Take `CCOC(=O)c1ccc(NP(C)(=O)Oc2ccc(Cl)cc2)cc1` (configuration not stated): the activity change, negative = inhibition was inactive: -3.65%.

As for `CP(=O)(Nc1ccc(Cl)cc1Cl)Oc1ccccc1` (configuration not stated), the activity change, negative = inhibition is inactive: 3.55%. On to `CP(=O)(OCCOc1ccccc1)OCCOc1ccccc1`, for which the activity change, negative = inhibition was inactive: 13.3%.

`COc1ccc(OP(C)(=O)Nc2ccccc2Br)cc1` (configuration not stated): the activity change, negative = inhibition was inactive: -2.31%. On to `COc1ccccc1OP(C)(=O)Nc1ccc(C)c(C)c1` (configuration not stated), for which the activity change, negative = inhibition is inactive: -6.12%. The value for `Cc1cc(C)cc(OP(C)(=O)Nc2cccc(C(F)(F)F)c2)c1` (configuration not stated) was inactive: 7.48% [at 9.22 µM]; that for `CCc1ccc(OP(C)(=O)O)cc1` was inactive: -9.35%. `CP(=O)(Nc1ccccn1)Oc1ccccc1` (configuration not stated): the activity change, negative = inhibition is inactive: -16.4%.

Consider `COc1ccccc1OP(C)(=O)Nc1ccc(C)cc1C` (configuration not stated), for which the activity change, negative = inhibition is inactive: 6.8%. In the case of `Cc1c(NP(C)(=O)Oc2ccc(C(C)C)cc2)c(=O)n(-c2ccccc2)n1C` (configuration not stated), the activity change, negative = inhibition was inactive: 2.68%. In the case of `O=[N+]([O-])c1cc([N+](=O)[O-])c(Nc2ccccn2)c([N+](=O)[O-])c1`, the activity change, negative = inhibition is inactive: -1.39% [at 9.22 µM]. With `CN(C)CCOC(=O)C(O)(c1ccccc1)C1CCCC1` (configuration not stated), the activity change, negative = inhibition is inactive: 7.95%. Consider `COc1ccccc1OP(C)(=O)Nc1ccc(Br)cc1` (configuration not stated), for which the activity change, negative = inhibition was inactive: -11.8% [at 9.22 µM]. In the case of `O=C(OCCN1CCN(CCOCc2ccccc2)CC1)C(O)(c1ccccc1)c1ccccc1`, the activity change, negative = inhibition was inactive: 10.1%. The value for `CC(C)c1ccc(OP(C)(=O)Nc2ccc(SC(F)(F)F)cc2)cc1` (configuration not stated) was inactive: -5.53%. For the molecule `CP(=O)(Nc1ccccc1F)Oc1ccccc1` (configuration not stated), the activity change, negative = inhibition is inactive: 7.75%.

On to `CCCCCOc1ccc(NP(C)(=O)Oc2ccc(Cl)cc2Cl)cc1` (configuration not stated), for which the activity change, negative = inhibition was inactive: -3.15% [at 9.22 µM]. In the case of `CP(=O)(Nc1ccccc1)Oc1ccc(F)cc1` (configuration not stated) it was inactive: 2.24%. In the case of `CCN(CC)CCCOC(=O)C(O)(c1ccccc1)C1CCCCC1` (configuration not stated), the activity change, negative = inhibition was inactive: 0.946%.

Regarding `COc1ccc(OP(C)(=O)Nc2ccc(SC(F)(F)F)cc2)cc1` (configuration not stated), the activity change, negative = inhibition is inactive: -15.3%. In the case of `CCOC(=O)c1ccc(NP(C)(=O)Oc2ccc(F)cc2)cc1` (configuration not stated), the activity change, negative = inhibition was inactive: -20.3%. `Cc1cc(-c2cccc3ccccc23)c(C)cn1.O=[N+]([O-])c1cc([N+](=O)[O-])c(O)c([N+](=O)[O-])c1`: the activity change, negative = inhibition is inactive: -7.36% [at 9.22 µM]. Regarding `O=[N+]([O-])c1ccc(OP2(=O)COCCO2)cc1` (configuration not stated), the activity change, negative = inhibition is inactive: -11.9% [at 9.22 µM].

Turning to `COc1ccc(NP(C)(=O)Oc2ccccc2OC)cc1` (configuration not stated), the activity change, negative = inhibition was inactive: 1.4%. `CN(C)CCOC(=O)C(O)(c1ccccc1)C1CCCCC1` (configuration not stated): the activity change, negative = inhibition is inactive: -27.6%.

In the case of `COc1ccc(OP(C)(=O)Nc2cccc(Br)c2)cc1` (configuration not stated), the activity change, negative = inhibition was inactive: -4.67%. Regarding `Cc1ccccc1NP(C)(=O)Nc1ccccc1C`, the activity change, negative = inhibition is inactive: 24.3%. With `CP(=O)(Nc1ccc2c(c1)OCCO2)Oc1ccccc1` (configuration not stated), the activity change, negative = inhibition is inactive: 3.02%.

For `CCOP(C)(=S)SCC(=O)NC(C)(CC)C(=O)O` (configuration not stated), the activity change, negative = inhibition was inactive: 17.4%.

Regarding `CP(=O)(Nc1ccc(SC(F)(F)F)cc1)Oc1ccc(F)cc1` (configuration not stated), the activity change, negative = inhibition was inactive: -5.12% [at 9.22 µM]. For the molecule `Cc1nc2ccc3ccccc3c2s1.O=[N+]([O-])c1cc([N+](=O)[O-])c(O)c([N+](=O)[O-])c1`, the activity change, negative = inhibition is inactive: -2.12%.

`O=[N+]([O-])c1cc([N+](=O)[O-])c(-n2nnc3ccccc32)c([N+](=O)[O-])c1`: the activity change, negative = inhibition is inactive: 4.69%. In the case of `CCCOc1ccc(NP(C)(=O)Oc2ccc(Cl)cc2)cc1` (configuration not stated) it was inactive: -14.3%; in that of `CP(=O)(Nc1ccc(SC(F)(F)F)cc1)Oc1ccccc1` (configuration not stated), inactive: -11%.

Regarding `COc1ccccc1OP(C)(=O)Nc1c(C)cccc1C` (configuration not stated), the activity change, negative = inhibition was inactive: 11.4%. The value for `CN1CCCCC1COC(=O)C1(O)c2ccccc2CCc2ccccc21` (configuration not stated) was inactive: -2.6%; that for `O=[N+]([O-])c1cc([N+](=O)[O-])c(Nc2nnnn2CCO)c([N+](=O)[O-])c1` was inactive: -41.7% [at 9.22 µM].

In the case of `O=[N+]([O-])OCC(CO[N+](=O)[O-])(CO[N+](=O)[O-])CO[N+](=O)[O-]`, the activity change, negative = inhibition is inactive: 9.38%.

Regarding `CC1=NCCc2c1[nH]c1ccccc21.O=[N+]([O-])c1cc([N+](=O)[O-])c(O)c([N+](=O)[O-])c1`, the activity change, negative = inhibition was inactive: -0.397%. As for `O=[N+]([O-])c1cccc([N+](=O)[O-])c1`, the activity change, negative = inhibition was inactive: 5.9%. For the molecule `Cc1cc(C)cc(OP(C)(=O)Nc2ccccn2)c1` (configuration not stated), the activity change, negative = inhibition is inactive: -3.34%. As for `CP(=O)(Nc1cccc(Br)c1)Oc1ccccc1` (configuration not stated), the activity change, negative = inhibition was inactive: -1.34%.

In the case of `Cc1ccc(C)c(NP(C)(=O)Oc2ccccc2)c1` (configuration not stated), the activity change, negative = inhibition was inactive: 20.7%. Take `Cc1cc(C)cc(OP(C)(=O)Nc2ccc(C)cc2C)c1` (configuration not stated): the activity change, negative = inhibition is inactive: -8.97%.
